Source: publication PMC10698726 (Molecular Pharmaceutics, 2023)

Legend:
[1] = target: T1, OCT2 (Homo sapiens, UniProt O15244)
T1 sequence (O15244 1-555): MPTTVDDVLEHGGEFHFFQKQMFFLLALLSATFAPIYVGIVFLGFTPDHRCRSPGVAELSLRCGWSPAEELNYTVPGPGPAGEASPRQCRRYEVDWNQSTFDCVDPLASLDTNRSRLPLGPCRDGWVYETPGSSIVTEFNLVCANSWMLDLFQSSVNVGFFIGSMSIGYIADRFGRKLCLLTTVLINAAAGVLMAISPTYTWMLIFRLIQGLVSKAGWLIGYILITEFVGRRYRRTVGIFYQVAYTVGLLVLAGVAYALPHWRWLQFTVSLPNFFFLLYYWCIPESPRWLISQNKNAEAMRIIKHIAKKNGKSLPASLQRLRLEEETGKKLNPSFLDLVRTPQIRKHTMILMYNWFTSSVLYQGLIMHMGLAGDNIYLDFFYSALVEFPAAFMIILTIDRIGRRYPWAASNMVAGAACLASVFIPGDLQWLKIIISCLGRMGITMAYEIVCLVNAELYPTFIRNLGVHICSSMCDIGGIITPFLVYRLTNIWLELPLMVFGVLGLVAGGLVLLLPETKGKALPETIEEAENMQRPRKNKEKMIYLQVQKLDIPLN

[2] = target: T2, OCT1 (Homo sapiens, UniProt O15245); conditions: ref 1 (Tzvetkov et al., 2018, supplement); cited from earlier work
T2 sequence (O15245 1-554): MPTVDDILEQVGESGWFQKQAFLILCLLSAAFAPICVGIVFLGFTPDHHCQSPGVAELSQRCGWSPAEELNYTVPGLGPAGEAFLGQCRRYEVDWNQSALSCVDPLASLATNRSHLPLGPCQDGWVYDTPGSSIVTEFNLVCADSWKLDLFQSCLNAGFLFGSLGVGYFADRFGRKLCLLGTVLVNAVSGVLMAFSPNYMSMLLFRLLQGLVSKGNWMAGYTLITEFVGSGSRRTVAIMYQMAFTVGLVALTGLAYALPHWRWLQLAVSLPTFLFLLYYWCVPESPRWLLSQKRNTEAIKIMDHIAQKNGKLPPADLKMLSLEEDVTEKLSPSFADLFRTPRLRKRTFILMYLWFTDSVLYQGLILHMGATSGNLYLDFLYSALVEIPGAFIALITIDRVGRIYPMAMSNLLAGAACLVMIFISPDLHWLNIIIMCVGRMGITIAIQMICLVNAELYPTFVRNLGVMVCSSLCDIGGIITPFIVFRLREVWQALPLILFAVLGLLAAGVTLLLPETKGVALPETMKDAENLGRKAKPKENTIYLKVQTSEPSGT

Row | Compound | difference between enantiomers in the inhibition of OCT2 (in words) [1] | vmax ± SEM [pmol × mg Protein−1 × min−1] [2]
1 | C=C[C@H]1C[N@@]2CC[C@H]1C[C@H]2[C@H](O)c1ccnc2ccc(OC)cc12 [Quinine] | noticeable differences | –
2 | CC(Cc1ccc(O)cc1)NCC(O)c1cc(O)cc(O)c1 (racemic) [rac Fenoterol, Fenoterol] | – | 57.2 pmol × mg Protein−1 × min−1
